Data on 1 substance can be found in patent US20230242641A1, “SLAMF7 CARS” (JULIUS-MAXIMILIANS-UNIVERSITÄT WÜRZBURG, priority 2020, published 2023).

The experiment concerns EGFRt-positive T cells. The experiment can be described thus: ADCC assay with Cetuximab. Type of experiment: cell-based, human. As to conditions: 50 μg/ml Cetuximab, effector to target cell ratio 20:1, SLAMF7−/low vs bulk PBMC. On the procedure: PBMC were sorted for SLAMF7-negativity (right) or were left unsorted (left). […] The target T cells were previously stained with eFluor 670. The number of remaining target cells was measured by flow cytometry. Data was collected as technical triplicates.
The mechanisms that leads to CAR-T cell depletion through the EGFRt marker are ADCC and CDC. For ADCC to occur efficiently, Fc-receptor expressing PBMC (e.g. NK cells, monocytes and macrophages) are required. […] Therefore, it was tested if SLAMF7^−/low PBMC are similarly effective at conferring ADCC as bulk unselected PBMC. PBMC were obtained from healthy donors, and SLAMF7^+/high lymphocytes were depleted using immunomagnetic bead selection. Then, ADCC assays were performed using either SLAMF7^−/low PBMC or bulk unselected PBMC as effector cells. […] Without Cetuximab, no ADCC occurred. Without the EGFRt marker, no ADCC occurred. […] However, because fratricide of SLAMF7^−/high lymphocytes will likely lead to lower absolute lymphocyte counts, ADCC may occur with a slower kinetic.

Regarding “Cetuximab: anti-EGFR monoclonal antibody”, the “ADCC depletion of EGFRt-positive SLAMF7 CAR-T cells” value was “similarly effective with SLAMF7^−/low PBMC and bulk unselected PBMC”.
